From PubChem BioAssay
ERp5 block – inhibitors of human ERp5; Q15084; ERp5 insulin aggregation, absorbance 650 nm, 90 min; inhibition, % at 9.99 µM; 0.05% of 350,000 active; AID 651711;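 active = mean replicate inhibition above about 25%, with every replicate also reaching it, limit read from the data, passing the limit was not always enough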
NR1D1 modulator – modulators of human Rev-erb alpha DNA binding | activity, % at 10 µM | P20393 | Rev-erbα–FITC-DNA binding, fluorescence polarization, 90 min | 0.79% of 370,000 active;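 active = activity above about 14%, limit read from the data; passing the limit was not always enough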;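 also: 0% = DMSO wells with 35 nM protein and 100% = DMSO wells with 750 nM protein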
SMARCA2 act – activators of SMARCA2 function. activation, % at 9.1 µM. MG213 cells, MMTV-luciferase reporter, dexamethasone, overnight. 1% of 370,000 active. AID 652017; in the data active = activation above about 7.8%;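 also: 0% = vehicle wells and 100% = reference activator wells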
INS-1E GSIS act – GLuc luminescence reporter in INS-1E cells, primary screen for activators of glucose-dependent secretion of insulin | 0.61% of 370,000 active | INS-1E GLuc reporter insulin secretion, 2-3 h | activation, % at 16.6 µM;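 active = lowest replicate activation of at least 40%, so every replicate reaches that level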;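 also: 0% = median of neutral control wells and 100% = median of IBMX positive control wells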
UUG fidelity – modulators of start codon recognition fidelity in yeast; S. cerevisiae UUG-firefly luciferase reporter, luminescence/redox ratio; activity score, % at 18.7 µM; hit rate 0.13% among 350,000; AID 602363;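 active = replicate mean at a twofold rise or more, about +100% in these data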;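 note: firefly luciferase made from a UUG start codon reports start codon fidelity; reporter light over untreated wells divided by growth signal over untreated wells; some hits fall short of that in this replicate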
PDI inh – PDI (human) enzyme inhibition; P07237; PDI insulin aggregation turbidity, A650, 90 min; inhibition, % at 10 µM; 0.052% of 350,000 active;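 active = mean inhibition across replicates of 30% or more, whatever share of single replicates reach that level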
NR1D1 mod conf – confirmation of modulators of human Rev-erb alpha DNA binding | shares compounds with NR1D1 modulator | AID 1259319 | activation, % at 25 µM | 61% of 3,000 active | Rev-erb alpha FITC-DNA binding, fluorescence polarization, 90 min;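 active = activation at or above a set limit, or at least 3 SD above the negative control mean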;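 also: 0% = 35 nM protein with DMSO and 100% = 750 nM protein high control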
RORg counter – counter-screen for Rev-erb alpha modulators: RORgamma DNA binding. shares compounds with NR1D1 modulator. purified RORgamma protein-FITC-DNA binding, fluorescence polarization. IC50, µM. 8% of 910 active. AID 1259320;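 active = Compounds whose fitted half-maximal concentration for disrupting protein-DNA binding is below 10 micromolar; the record names Rev-erb in its text, so the target is in doubt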
Numbers without * were called inactive. The list is not random: actives were taken first. Their share in the collection is about 2.1%.

`COCCn1c(=NC(=O)c2ccc(S(=O)(=O)N3CCc4ccccc4C3)cc2)sc2cc(OC)ccc21` gave NR1D1 modulator 53.9*, SMARCA2 act -3.3, INS-1E GSIS act 7.0, UUG fidelity 5.0, PDI inh 3.2 and NR1D1 mod conf 18.9*.
`COc1ccc2sc(N(CCCN(C)C)C(=O)c3ccc(S(=O)(=O)N4CCc5ccccc5C4)cc3)nc2c1` gave ERp5 block -12.9, NR1D1 modulator -3.9, SMARCA2 act 3.9, INS-1E GSIS act -7.9, UUG fidelity -3.6 and PDI inh 4.5.
Screening COCCn1c(=NC(=O)CCS(=O)(=O)c2ccccc2)sc2cc(C(=O)OC)ccc21 returned ERp5 block -0.2, NR1D1 modulator 204.5*, SMARCA2 act -3.0, INS-1E GSIS act 3.4, UUG fidelity -5.6, PDI inh -2.8, NR1D1 mod conf 137.3* and RORg counter >40.
C[C@H](CO)N1C[C@H](C)[C@@H](CN(C)Cc2ccc(C(=O)O)cc2)Oc2c(NC(=O)C3CCOCC3)cccc2C1=O was read as ERp5 block 7.8, INS-1E GSIS act 22.5 and UUG fidelity 10.0.
For Cc1ccc(CNC(=O)c2nnn(CC(=O)Nc3cc(C)cc(C)c3)c2N)cc1 the results were ERp5 block 7.8, NR1D1 modulator 24.3*, SMARCA2 act -1.9, INS-1E GSIS act 10.6, UUG fidelity -14.3, PDI inh 11.1 and NR1D1 mod conf 20.8*.
For COc1cccc(CNC(=O)c2nnn(CC(=O)Nc3ccc(Br)cc3)c2N)c1 the results were ERp5 block 4.5, NR1D1 modulator 19.3*, SMARCA2 act -3.5, INS-1E GSIS act 1.3, UUG fidelity -13.0, PDI inh 8.8 and NR1D1 mod conf 5.7.
For S=c1nc[nH]c2c1sc1nc(-c3ccccc3)c3c(c12)CCCC3 the results were ERp5 block -0.7, NR1D1 modulator 15.9, SMARCA2 act -1.6, INS-1E GSIS act 2.8 and PDI inh -0.3.
For COC(=O)c1sc2nc(-c3ccccc3)c3c(c2c1N)CCCC3 the results were NR1D1 modulator 68.6*, SMARCA2 act -1.7, UUG fidelity -20.1, PDI inh -0.2, NR1D1 mod conf 39.1* and RORg counter >40.
For O=c1[nH]cnc2c1sc1nc(-c3ccccc3)c3c(c12)CCCC3 the results were ERp5 block -2.1, NR1D1 modulator 18.4*, SMARCA2 act -2.6, INS-1E GSIS act 11.8, PDI inh -4.0 and NR1D1 mod conf 9.1.
Nc1c(C(=O)O)sc2nc(-c3ccccc3)c3c(c12)CCCC3 was read as ERp5 block -1.1, NR1D1 modulator 2.8, SMARCA2 act 0.4, INS-1E GSIS act -1.9 and PDI inh 0.2.
For CN(C)C(=O)C[C@@H]1CC[C@@H]2[C@H](COC[C@@H](O)CN2CC2CC2)O1 the results were ERp5 block 4.2 and INS-1E GSIS act 2.5.
`C[C@@H]1CCCCO[C@H](CN(C)C(=O)NC2CCCCC2)[C@H](C)CN([C@H](C)CO)C(=O)c2cc(NC(=O)Cc3ccccc3)ccc2O1` gave INS-1E GSIS act -31.4.
For O=C(CCN1CCCCC1)NCC[C@@H]1CC[C@H](NC(=O)C2CC2)[C@@H](CO)O1 the results were ERp5 block -5.1, INS-1E GSIS act 6.8 and UUG fidelity -3.0.
`CC(=O)OCC1OC(n2c(-c3ccc(Cl)cc3)ccc(C#N)c2=S)C(OC(C)=O)C(OC(C)=O)C1OC(C)=O` (stereo not drawn) gave ERp5 block -1.2, NR1D1 modulator 54.5*, SMARCA2 act -0.6, INS-1E GSIS act -33.3, PDI inh -2.1, NR1D1 mod conf 40.7* and RORg counter >40.
O=C1c2cccc3c(O)ccc(c23)C(=O)N1c1ccc(Cl)cc1 was read as ERp5 block 2.9, NR1D1 modulator 59.9*, SMARCA2 act -4.7, INS-1E GSIS act -2.7, UUG fidelity -13.6, PDI inh -3.2, NR1D1 mod conf 53.1* and RORg counter 9.4*.
Screening Cc1ccc(N2C(=O)c3cccc4c(C(=O)O)ccc(c34)C2=O)cc1 returned ERp5 block 3.3, NR1D1 modulator 2.2, SMARCA2 act 0.3 and INS-1E GSIS act 3.4.
Screening O=C1c2cccc3c(O)ccc(c23)C(=O)N1Cc1ccco1 returned ERp5 block 6.2, NR1D1 modulator 36.3*, SMARCA2 act 0.1, INS-1E GSIS act -21.5, UUG fidelity -14.2, PDI inh 7.1, NR1D1 mod conf 37.5* and RORg counter >40.
CC(=O)Nc1ccc(N2C(=O)c3cccc4c(O)ccc(c34)C2=O)cc1 was read as ERp5 block -0.4, NR1D1 modulator 28.6*, SMARCA2 act 0.2, INS-1E GSIS act -10.0, UUG fidelity -13.5, PDI inh 0.2, NR1D1 mod conf 39.6* and RORg counter 1.25*.
Screening C[C@@H]1CN([C@@H](C)CO)C(=O)c2cc(-c3ccccc3F)cnc2O[C@@H]1CN(C)C(=O)C1CC1 returned ERp5 block 5.5, INS-1E GSIS act 9.2 and UUG fidelity 10.0.
For COc1ccc(N=Nc2nc(-c3ccccc3)c(-c3ccccc3)[nH]2)cc1 the results were ERp5 block 4.0, NR1D1 modulator 9.5, SMARCA2 act -5.2, UUG fidelity -18.4 and PDI inh -2.8.
Screening COc1ccccc1N=Nc1nc(-c2ccccc2)c(-c2ccccc2)[nH]1 returned ERp5 block -5.6, NR1D1 modulator 35.0*, SMARCA2 act -0.3, INS-1E GSIS act 19.0, PDI inh -0.2, NR1D1 mod conf 41.5* and RORg counter 1.13*.
Oc1ccccc1N=Nc1nc(-c2ccccc2)c(-c2ccccc2)[nH]1 was read as NR1D1 modulator 25.1*, SMARCA2 act -3.0, INS-1E GSIS act 0.7, UUG fidelity -36.5, PDI inh -14.5, NR1D1 mod conf 33.4* and RORg counter >40.
Screening CCOC(=O)c1ccc(-c2ccc3oc(-c4ccsc4)cc(=O)c3c2)cc1F returned ERp5 block 10.7, NR1D1 modulator 57.7*, SMARCA2 act -0.2, UUG fidelity -11.7, PDI inh 10.2 and NR1D1 mod conf 11.5.
Cc1ccc(OCC(=O)O/N=C(\N)c2ccncc2)cc1C was read as ERp5 block -0.4, NR1D1 modulator 22.5*, SMARCA2 act 1.9, INS-1E GSIS act 4.1, UUG fidelity -22.9, PDI inh 2.5 and NR1D1 mod conf -3.2.
Screening COc1ccc(S(=O)(=O)N(C)C[C@@H]2OCCCC[C@H](C)Oc3ccc(NS(=O)(=O)c4ccccc4)cc3C(=O)N([C@H](C)CO)C[C@H]2C)cc1 returned ERp5 block 4.4, INS-1E GSIS act -14.1 and UUG fidelity 4.1.

By substructure: those above with fluorine
Screening C[C@@H]1CN([C@@H](C)CO)C(=O)c2cc(-c3ccccc3F)cnc2O[C@@H]1CN(C)C(=O)C1CC1 returned ERp5 block 5.5, INS-1E GSIS act 9.2 and UUG fidelity 10.0.
Screening CCOC(=O)c1ccc(-c2ccc3oc(-c4ccsc4)cc(=O)c3c2)cc1F returned ERp5 block 10.7, NR1D1 modulator 57.7*, SMARCA2 act -0.2, UUG fidelity -11.7, PDI inh 10.2 and NR1D1 mod conf 11.5.
